From patent publication US20260199426A1, “CYCLIC LIPOPEPTIDE ANTIBIOTIC COMPOUNDS FOR USE IN THE TREATMENT OF PROTEIN AGGREGATION DISEASE” (DEUTSCHES ZENTRUM FÜR NEURODEGENERATIVE ERKRANKUNGEN E. V., priority 2022, published 2026)
*1 amine or outer side, *2 acyl side, *3 side chain or, on linkers, in order; H or OH if unused. Where a SMILES comes first, the peptide text is derived from it. Bridges are numbered along the chain shown (N, C = ends). [ ]: non-standard residue; d: D form. The star is where a group is joined. ξ: configuration not given here. X2 = O=C(C(N[*:1])c1ccc(OC2OC(CO)C(O)C(O)C2OC2OC(CO)C(O)C(O)C2O)cc1)[*:2]; Octa(2Z,4E)dienoyl(7-Me) = CC(C)C/C=C/C=C\C(=O)*; ξPhg(3-Cl-4-OH) = NC(C(=O)O)c1ccc(O)c(Cl)c1; X1 = NC(=O)C(O[*:3])C(N[*:1])C(=O)[*:2]; Hpg = N[CH](C(=O)O)c1ccc(O)cc1; Orn = NCCC[CH](N)C(=O)O

Key:
medin protein = target: T1, medin protein (Homo sapiens, UniProt Q08431); experiment: Medin aggregation assay (ThT, TEM); conditions: compound/medin mixtures
T1 sequence (Q08431 268-317 limits assumed): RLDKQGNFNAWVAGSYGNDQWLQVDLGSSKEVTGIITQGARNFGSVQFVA

[1] = target: pre-formed 2N4R Tau fibrils (Homo sapiens, UniProt P10636); experiment: Tau fibril dissolution assay (pre-formed fibrils, ThT span, TEM)
2N4R Tau = 2N4R Tau (Homo sapiens, UniProt P10636); experiment: Seeded Tau aggregation assay (ThT fluorescence, TEM of the fibrils formed); conditions: fibrils formed starting from Tau monomers incubated with Ramoplanin A2

CC(C)C/C=C/C=C\C(=O)NC(CC(N)=O)C(=O)NC1C(=O)NC(c2ccc(O)cc2)C(=O)NC(CCCN)C(=O)NC(C(C)O)C(=O)NC(c2ccc(O)cc2)C(=O)NC(c2ccc(O)cc2)C(=O)NC(C(C)O)C(=O)NC(Cc2ccccc2)C(=O)NC(CCCN)C(=O)NC(c2ccc(OC3OC(CO)C(O)C(O)C3OC3OC(CO)C(O)C(O)C3O)cc2)C(=O)NC(C(C)O)C(=O)NC(c2ccc(O)cc2)C(=O)NCC(=O)NC(CC(C)C)C(=O)NC(C)C(=O)NC(c2ccc(O)c(Cl)c2)C(=O)OC1C(N)=O (centres unmarked) [Ramoplanin A2] ({Octa(2Z,4E)dienoyl(7-Me)}-N[X1][Hpg][Orn]T[Hpg][Hpg]TF[Orn][X2]T[Hpg]GLA[ξPhg(3-Cl-4-OH)]; ester 2-C; configuration not given here)
medin oligomer vs fibril formation (TEM) (medin protein): medin oligomer formation competes with medin fibril formation
change in span of the fluorescence curves induced by Ramoplanin A2 ([1]; added to pre-formed fibrils after 25 h, mole ratios 1:0.3 and 1:1): not statistically significant
effect on already formed Tau fibrils (TEM morphology) ([1]; pre-formed Tau fibrils incubated further (for 15 h) with Ramoplanin A2): does not modify already formed Tau fibrils
Tau fibril elongation (TEM) (2N4R Tau): disrupts Tau fibril elongation
Tau fibril length (TEM) (2N4R Tau): < 100 nm
